This is an account of results in patent publication US5434182A (priority 1993, dated 1995).

In this assay the test system is Herpes Simplex Virus-1. Put plainly: microbe, parasite or virus in culture. The following applies: Human alphaherpesvirus 1, read-out: Reduction in Herpes Simplex Virus-1 Titer.

For the compound `CCCCCCCCCC(=O)OCC(O)CO` (racemic) [Monocaprin (10:0), 1-Monodecanoyl-rac-glycerol], the log reduction at 15000 µM was at least 4.
